Reference: ChEMBL document CHEMBL3751845, “Synthesis, molecular docking and biological evaluation of N,N-disubstituted 2-aminothiazolines as a new class of butyrylcholinesterase and carboxylesterase inhibitors” (Bioorg Med Chem, 2016)

Test: Cytotoxicity against human fetal MSC assessed as reduction in cell viability at <30 uM after 72 hrs by MTT assay

For `I.ICC1CN=C(Nc2ccccn2)S1` (stereo unspecified), the Activity was “Non-toxic”.
